# Rows were chosen to be rich in hits. Some 2% of all compounds tested hit in one or more screens of this group.
# TDP43 rescue – TDP-43 toxicity inhibition in yeast. Potency, µM (doses to about 46.1 µM), for the others: top-dose growth rescue (activation), most hits filed as activators. TDP-43 expressing yeast growth rescue, BacTiter-Glo, 24 h. 410,000 tested, 1.8% active. AID 652104; note: % of control where 0% means no effect; nearly all actives have a fitted effect of over 50% in size
#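 Readout is BacTiter-Glo luminescence of cell growth, so inhibitors register as activators. TDP-43-expressing yeast at OD600=0.02 in galactose medium, after raffinose pregrowth to mid-log, were incubated with compound for 24 hr at 30 deg C.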
# aSyn rescue – rescues yeast growth from alpha-synuclein toxicity. Yeast expressing alpha-synuclein, growth rescue, BacTiter-Glo, 24 h. Potency, µM (top dose mostly 46.1 µM), for the others: at the highest dose growth rescue (activation), most hits filed as activators. 370,000 tested, 0.14% active; note: % of control where 0% means no effect; nearly all actives have a fitted effect of over 65% in size
#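 Readout is rescue of growth in alpha-synuclein-expressing yeast, so inhibitors of toxicity appear as activators. Growth after 24 hr at 30 deg C in galactose medium is quantified by luminescence.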
# ASM inhibitor – human S-ASM enzyme inhibition | P17405 | placental ASM, HMU-PC fluorogenic substrate, 60 min | Potency, µM (doses to about 57.5 µM), inactives show at the top dose activity change, negative = inhibition, hits mostly inhibitors | 340,000 tested, 0.006% active | AID 504937
#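 qHTS format. ASM enzyme prepared from human placenta hydrolyses the fluorogenic substrate HMU-PC0 (9 uM final) over 60 min at 37 °C after a 10 min compound preincubation.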
# Rango-impB inh – Rango-importin beta binding inhibition; Q14974; Rango CFP/YFP FRET sensor + importin beta, 45 min; Potency, µM (doses to about 92.2 µM), without a hit: at the highest dose inhibition of complex formation; 340,000 tested, 0.031% active; AID 540263; calls by dose curve;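 note: 0% = DMSO wells and 100% = buffer wells lacking importin beta; nearly all actives have a fitted effect of over 15% in size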
#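 FRET biosensor Rango (snurportin 1 IBB between N-terminal EYFP and C-terminal Cerulean), 50 nM in PBS/1 mM DTT/0.02% Tween-20/0.1% BSA, preincubated 5 min RT with compound; 0.125 microM importin beta added, 45 min RT, CFP/YFP FRET ratio read.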
# Abeta rescue – restores growth of yeast expressing A-beta42 peptide; 410,000 tested, 0.063% active; yeast expressing A-beta42, growth rescue, OD600, 48 h; response scale: 0% DMSO, 100% iron-clioquinol control; Potency, µM (highest dose often 46.1 µM), usual class: activators; note: nearly all actives have a fitted effect of over 55% in size
#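 Yeast growth medium received pinned compounds, then yeast cells expressing toxic A-beta were added; plates incubated at 30 C for 48 hr. Growth read as absorbance at 600 nm, normalized to DMSO and equimolar FeCl3 plus clioquinol controls.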
# Rango release inh – prevents RanGTP from dissociating the Rango-importin beta complex | Potency, µM (series often up to 46.1 µM), without a hit: at the top dose activity change, negative = inhibition | O95149+P62826 | 340,000 tested, 0.071% active | AID 540253 | Biochemical FRET Rango-importin beta, RanGTP-induced dissociation; calls by dose curve; note: % of control where 0% means no effect; nearly all actives have a fitted effect of over 45% in size
#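 Quantitative HTS using a FRET biosensor: 0.1 uM Rango, 0.25 uM importin beta, 0.6 uM Ran, 2 mM GTP, 0.2 uM RCC1 final, PBS with DTT, Tween-20 and BSA. Post-read taken 45 min after Ran addition.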
# Active calls of the source: *; i = inactive; ? = inconclusive; · = no result given; [ ] = remark or other dose. Unless noted, calls come from the whole dose curve; as a rule, active = well fitted curve in the direction sought with a large enough effect; inconclusive = small, poorly fitted or top-dose-only effect, or another doubt; inactive = no such curve, though single readings can be large; an effect the other way counts as inactive or inconclusive. Potency is the fitted concentration of half-maximal effect.
nr	Compound	TDP43 rescue	aSyn rescue	ASM inhibitor	Rango-impB inh	Abeta rescue	Rango release inh
1	NS(=O)(=O)c1ccc(Nc2nc(-c3ccc(O)cc3O)cs2)cc1	4%	-10%	-13%	-2%	i	2%
2	Cc1cc(NC(=O)COc2ccccc2)cc(-c2nc3ccccc3o2)c1O	-7%	1%	·	·	i	·
3	Cc1ccc(Cl)cc1N1CCN(Cc2nc3c(c(=O)[nH]c(=O)n3C)n2Cc2ccccc2F)CC1	11µM*	-1%	-22%	?	i	-5%
4	COCc1cc(C)nc2sc3c(c12)NC(c1ccc(O)cc1)N(c1ccc(C)cc1)C3=O (stereo not given)	20%	·	·	·	i	·
5	COc1cccc(-c2nnc(-c3ccccc3NC(=O)c3cccc(C(F)(F)F)c3)o2)c1	-7%	-6%	·	·	i	·
6	COc1cc(F)c(C2=CC(=O)C[C@H](c3ccc4c(c3)OCO4)C2)cc1F	13µM*	-2%	-5%	-4%	i	-2%
7	COc1ccc(F)cc1C1=CC(=O)C[C@H](c2ccc3c(c2)OCO3)C1	22µM*	1%	-4%	5%	i	5%
8	COc1cccc(C2=CC(=O)C[C@H](c3ccc4c(c3)OCO4)C2)c1OC	13µM*	-2%	0%	0%	i	4%
9	COc1cccc(OC)c1C1=CC(=O)C[C@H](c2ccc3c(c2)OCO3)C1	?	-6%	-5%	3%	i	13%
10	COc1ccc([C@H]2CC(=O)C=C(c3cc(F)ccc3OC)C2)cc1	?	8%	-1%	-3%	i	18%
11	CCCCN(CC)C(=O)CSc1nc2ccccc2c(=O)n1Cc1ccco1	0%	·	·	·	i	·
12	Cc1ccc(-c2nnc(Nc3ccc(O)cc3)c3ccccc23)cc1S(=O)(=O)N1CCCCC1	15%	·	·	·	i	·
13	COc1ccc(CC(=O)Nc2ccc(-c3nc4ccccc4s3)cc2Cl)cc1OC	-7%[9.22 µM]	·	·	·	i	·
14	CC1=CC(c2ccc(Cl)cc2)n2nc(NC(=O)c3ccccc3)nc2N1 (stereo not given)	8%	4%	-1%	?	i	-9%
15	CC(=O)Nc1nc2n(n1)C(c1ccc(Cl)cc1)C=C(C)N2 (stereo not given)	-10%	-2%	i	?	i	13µM*
16	COC(=O)c1ccccc1NC(=O)CSc1nnc(Cc2ccc(Cl)cc2)o1	25µM*	6%	-7%	-2%	i	-5%

# Of the compounds above, 4 have four or more nitrogen atoms:
nr	Compound	TDP43 rescue	aSyn rescue	ASM inhibitor	Rango-impB inh	Abeta rescue	Rango release inh
3	Cc1ccc(Cl)cc1N1CCN(Cc2nc3c(c(=O)[nH]c(=O)n3C)n2Cc2ccccc2F)CC1	11µM*	-1%	-22%	?	i	-5%
12	Cc1ccc(-c2nnc(Nc3ccc(O)cc3)c3ccccc23)cc1S(=O)(=O)N1CCCCC1	15%	·	·	·	i	·
14	CC1=CC(c2ccc(Cl)cc2)n2nc(NC(=O)c3ccccc3)nc2N1 (stereo not given)	8%	4%	-1%	?	i	-9%
15	CC(=O)Nc1nc2n(n1)C(c1ccc(Cl)cc1)C=C(C)N2 (stereo not given)	-10%	-2%	i	?	i	13µM*

# The listing continues.
nr	Compound	TDP43 rescue	aSyn rescue	ASM inhibitor	Rango-impB inh	Abeta rescue	Rango release inh
17	CC(C)c1ccccc1NC(=O)CSc1nnc(COc2ccccc2)o1	?	·	·	·	i	·
18	CC(C)c1ccccc1NC(=O)CSc1nnc(COc2ccccc2Cl)o1	20µM*	·	·	·	i	·
19	Cc1cccc(N2C(=O)C(CC(=O)Nc3ccccc3)N(C3CCCCC3)C2=O)c1 (stereo not given)	0%	·	·	·	i	·
20	CCC1CCc2c(sc(NC(=O)C3c4ccccc4Oc4ccccc43)c2C#N)C1 (stereo not given)	24%	·	·	·	i	·
21	COc1ccccc1NC(=O)Cn1c(=O)n(Cc2cccs2)c(=O)c2cccnc21	-34%	·	·	·	i	·
22	CCCCC(CC)CN=C(N)NC(N)=NCCCCCCN=C(N)NC(N)=NCC(CC)CCCC (stereo not given)	-88%	-44%	?	58µM*	i	?
23	CCC(C)NC(=O)c1c(N)n(/N=C/c2cccnc2)c2nc3ccccc3nc12 (stereo not given)	14µM*	4%	244%	?	i	3.3µM*[inhibitor]
24	CCC(C)NC(=O)c1c(N)n(/N=C/c2ccccn2)c2nc3ccccc3nc12 (stereo not given)	6%	-8%	174%	-4%	i	-2%

# The list continues.
no. | SMILES | TDP43 rescue | aSyn rescue | ASM inhibitor | Rango-impB inh | Abeta rescue | Rango release inh
25 | CCCCCCCCNc1ccc(/C=C/c2ccnc3ccccc23)cc1 | · | -61% | · | · | · | ·
26 | CC(=O)N1CCc2c(sc3c2c(=O)n(Cc2ccccc2)c(=O)n3Cc2ccccc2F)C1 | 17% | · | · | · | i | ·
27 | CC(=O)N1CCc2c(sc3c2c(=O)n(CCc2ccccc2)c(=O)n3Cc2ccc(F)cc2)C1 | 16µM* | · | · | · | i | ·
28 | CC(=O)N1CCc2c(sc3c2c(=O)n(Cc2ccccc2)c(=O)n3Cc2ccccc2Cl)C1 | 16µM* | · | · | · | i | ·
29 | Fc1ccc(CNc2ncnc3nc[nH]c23)cc1 | · | -4% | · | · | · | ·
30 | CCOC(=O)c1ccc(CNc2ncnc3nc[nH]c23)cc1 | · | 25µM* | · | · | · | ·
31 | O=S(=O)(NC(=S)NC1CCCCC1)c1ccc(Cl)cc1 | 14% | 2% | 9% | 4% | i | -3%
32 | Cc1ccc(S(=O)(=O)NC(=S)NC2CCCCC2)cc1 | 16µM* | 10% | 4% | 3% | i | 6%
33 | O=c1c2cc3c(cc2n(Cc2ccccc2)c(=O)n1Cc1nc(-c2ccccc2)no1)OCO3 | -1% | · | · | · | i | ·
34 | CC(=O)Nc1ccc(S(=O)(=O)N2CCN(c3cc(C)ccc3C)CC2)cc1 | 28µM* | 9% | -14% | -5% | i | 6%
35 | Nc1nc(-c2ccco2)nn1C(=O)c1ccc(F)cc1 | 11µM* | 4% | -1% | 1% | i | -19%
36 | CCCCCCCCCCCCOC(=O)N1CCN(/[N+]([O-])=N/Oc2ccc([N+](=O)[O-])cc2[N+](C)=O)CC1 | · | -47% | · | · | · | ·
37 | COc1ccc(N2CCN(C(=O)C(C)n3c(=O)cc(C(F)(F)F)c4c(C)nn(C)c43)CC2)cc1 (stereo not given) | -10% | · | · | · | i | ·
38 | O=[N+]([O-])c1cc(S(=O)(=O)Nc2ccccc2)ccc1NCc1ccccc1 | 1% | 17% | -10% | 0% | i | 2%
39 | O=[N+]([O-])c1cc(S(=O)(=O)Nc2ccccc2)ccc1Nc1ccccc1 | 13µM* | 13% | -16% | 0% | ? | 4%
40 | COc1ccc(/C=N/N2CCOCC2)cc1COc1ccc(Cl)cc1 | 16µM* | 3% | -1% | -1% | i | 2%
41 | COc1ccc(/C=N/NC(=O)c2ccn[nH]2)cc1COc1ccc(Cl)cc1 | 18µM* | 12% | ? | -1% | i | -1%
42 | COc1ccc(/C=N/N2CCOCC2)cc1COc1ccc(F)cc1 | ? | 3% | -4% | -3% | i | -14%
43 | C=CCn1c2ccccc2c(=O)c2cc(C#Cc3ccccn3)ccc21 | 20µM* | -25% | i | ? | i | ?
44 | O=c1c2ccccc2oc2cc(C#Cc3ccccn3)ccc12 | ? | 1% | 10% | 0% | i | -3%
45 | COc1ccc2cc(-c3nnc(Nc4ccccc4)s3)c(=O)oc2c1 | 0% | 2% | · | · | i | ·
46 | CC(=O)c1c(C)oc2c(Br)cc(NS(=O)(=O)c3ccc(Br)cc3)cc12 | 6% | -1% | · | · | i | ·

# High-throughput results (PubChem)
